## Membrane permeability of cyclic peptides

Collected by the curators of CycPeptMPDB (Li et al. 2023) from Fouché et al. 2016, doi:10.1002/cmdc.201600082.

MDCK values are permeabilities across Madin-Darby canine kidney cell monolayers. Values are log10 P with P in cm/s, so -5 is more permeable than -7.

structure (SMILES),MDCK (log10 cm/s)
CC(C)C[C@@H]1NC(=O)[C@H](C)N(C)C(=O)[C@H]2CCCN2C(=O)[C@H](CC(C)C)NC(=O)[C@H](C)N(C)C(=O)[C@H](CC(C)C)NC(=O)[C@H](C)N(C)C(=O)[C@H]2CCCN2C(=O)[C@H](CC(C)C)NC(=O)[C@H](C)N(C)C1=O,-5.19
CC(C)C[C@@H]1NC(=O)[C@H](C)N(C)C(=O)[C@H](CC(C)C)NC(=O)[C@@H]2CCCN2C(=O)[C@@H](Cc2ccccc2)N(C)C(=O)[C@H](CC(C)C)NC(=O)[C@H](C)N(C)C(=O)[C@H](CC(C)C)NC(=O)[C@@H]2CCCN2C(=O)[C@@H](Cc2ccccc2)N(C)C1=O,-5.82
CC(C)C[C@@H]1NC(=O)[C@H](Cc2ccccc2)NC(=O)[C@H]2CCCN2C(=O)[C@H](CC(C)C)NC(=O)[C@H](C)NC(=O)[C@H](CC(C)C)NC(=O)[C@H](Cc2ccccc2)NC(=O)[C@H]2CCCN2C(=O)[C@H](CC(C)C)NC(=O)[C@H](C)NC1=O,-6.20
CC(C)C[C@@H]1NC(=O)[C@H](C)N(C)C(=O)[C@H](CC(C)C)NC(=O)[C@H](Cc2ccccc2)N(C)C(=O)[C@@H](C)N(C)C(=O)[C@H](CC(C)C)NC(=O)[C@H](C)N(C)C(=O)[C@H](CC(C)C)NC(=O)[C@H](Cc2ccccc2)N(C)C(=O)[C@@H](C)N(C)C1=O,-6.25
CC(C)C[C@@H]1NC(=O)[C@H](C)N(C)C(=O)[C@H](CC(C)C)NC(=O)[C@H](C)N(C)C(=O)[C@@H](C)N(C)C(=O)[C@H](CC(C)C)NC(=O)[C@H](C)N(C)C(=O)[C@H](CC(C)C)NC(=O)[C@H](C)N(C)C(=O)[C@@H](C)N(C)C1=O,-5.18
CC(C)C[C@@H]1NC(=O)[C@H](C)N(C)C(=O)[C@H](CC(C)C)NC(=O)[C@H](C)N(C)C(=O)[C@@H](Cc2ccccc2)N(C)C(=O)[C@H](CC(C)C)NC(=O)[C@H](C)N(C)C(=O)[C@H](CC(C)C)NC(=O)[C@H](C)N(C)C(=O)[C@@H](Cc2ccccc2)N(C)C1=O,-5.35
CC(C)C[C@@H]1NC(=O)[C@H](C)N(C)C(=O)[C@H]2CCCN2C(=O)[C@H](CC(C)C)NC(=O)[C@H](Cc2ccccc2)N(C)C(=O)[C@H](CC(C)C)NC(=O)[C@H](C)N(C)C(=O)[C@H]2CCCN2C(=O)[C@H](CC(C)C)NC(=O)[C@H](Cc2ccccc2)N(C)C1=O,-5.65
CC(C)C[C@@H]1NC(=O)[C@H](C(C)C)N(C)C(=O)[C@H]2CCCN2C(=O)[C@H](CC(C)C)NC(=O)[C@H](C)N(C)C(=O)[C@H](CC(C)C)NC(=O)[C@H](C(C)C)N(C)C(=O)[C@H]2CCCN2C(=O)[C@H](CC(C)C)NC(=O)[C@H](C)N(C)C1=O,-5.22
CC(C)C[C@@H]1NC(=O)[C@H](C)N(C)C(=O)[C@H](CC(C)C)NC(=O)[C@@H]2CCCN2C(=O)CN(C)C(=O)[C@H](CC(C)C)NC(=O)[C@H](C)N(C)C(=O)[C@H](CC(C)C)NC(=O)[C@@H]2CCCN2C(=O)CN(C)C1=O,-6.22
CC(C)C[C@@H]1NC(=O)[C@H](CC(C)C)N(C)C(=O)[C@H](CC(C)C)NC(=O)[C@H](C)N(C)C(=O)[C@@H](C)N(C)C(=O)[C@H](CC(C)C)NC(=O)[C@H](CC(C)C)N(C)C(=O)[C@H](CC(C)C)NC(=O)[C@H](C)N(C)C(=O)[C@@H](C)N(C)C1=O,-4.61
CC(C)C[C@@H]1NC(=O)[C@H](C)N(C)C(=O)[C@H](CC(C)C)NC(=O)[C@H](Cc2ccccc2)N(C)C(=O)[C@@H](CC(C)C)N(C)C(=O)[C@H](CC(C)C)NC(=O)[C@H](C)N(C)C(=O)[C@H](CC(C)C)NC(=O)[C@H](Cc2ccccc2)N(C)C(=O)[C@@H](CC(C)C)N(C)C1=O,-6.30
CC(C)C[C@@H]1NC(=O)[C@H](CC(C)C)N(C)C(=O)[C@H](CC(C)C)NC(=O)[C@@H]2CCCN2C(=O)CN(C)C(=O)[C@H](CC(C)C)NC(=O)[C@H](CC(C)C)N(C)C(=O)[C@H](CC(C)C)NC(=O)[C@@H]2CCCN2C(=O)CN(C)C1=O,-4.73
C[C@@H]1NC(=O)[C@H](C)N(C)C(=O)[C@H](C)NC(=O)[C@@H]2CCCN2C(=O)CN(C)C(=O)[C@H](C)NC(=O)[C@H](C)N(C)C(=O)[C@H](C)NC(=O)[C@@H]2CCCN2C(=O)CN(C)C1=O,-6.17
C[C@@H]1NC(=O)[C@H](C)N(C)C(=O)[C@H](C)NC(=O)[C@H](C)N(C)C(=O)[C@@H](C)N(C)C(=O)[C@H](C)NC(=O)[C@H](C)N(C)C(=O)[C@H](C)NC(=O)[C@H](C)N(C)C(=O)[C@@H](C)N(C)C1=O,-6.12

A selection of 2 entries from above:

{"smiles": "CC(C)C[C@@H]1NC(=O)[C@H](C(C)C)N(C)C(=O)[C@H]2CCCN2C(=O)[C@H](CC(C)C)NC(=O)[C@H](C)N(C)C(=O)[C@H](CC(C)C)NC(=O)[C@H](C(C)C)N(C)C(=O)[C@H]2CCCN2C(=O)[C@H](CC(C)C)NC(=O)[C@H](C)N(C)C1=O", "MDCK (log10 cm/s)": "-5.22"}
{"smiles": "CC(C)C[C@@H]1NC(=O)[C@H](C)N(C)C(=O)[C@H]2CCCN2C(=O)[C@H](CC(C)C)NC(=O)[C@H](Cc2ccccc2)N(C)C(=O)[C@H](CC(C)C)NC(=O)[C@H](C)N(C)C(=O)[C@H]2CCCN2C(=O)[C@H](CC(C)C)NC(=O)[C@H](Cc2ccccc2)N(C)C1=O", "MDCK (log10 cm/s)": "-5.65"}

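Conditions beyond the assay type are not listed; see the original paper. The list need not hold all peptides of the study. Entries at the database's floor value (log10 P of -10) are not listed.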